Biological target: T1, PD-L2 ECD (Homo sapiens, UniProt Q9BQ51)
T1 chain: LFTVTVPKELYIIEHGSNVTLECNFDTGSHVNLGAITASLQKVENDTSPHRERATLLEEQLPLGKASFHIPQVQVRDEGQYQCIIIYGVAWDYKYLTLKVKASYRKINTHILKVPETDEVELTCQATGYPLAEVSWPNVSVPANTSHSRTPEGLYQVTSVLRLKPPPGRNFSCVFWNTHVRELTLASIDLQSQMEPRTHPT
Assay: magneto-nanosensor

Kd: 4.7 µM
B1: PD-1 ECD (protein)
chain: LDSPDRPWNPPTFSPALLVVTEGDNATFTCSFSNTSESFVLNWYRMSPSNQTDKLAAFPEDRSQPGQDCRFRVTQLPNGRDFHMSVVRARRNDSGTYLCGAISLAPKAQIKESLRAELRVTERRAEVPTAHPSPSPRPAGQFQTLV

Reference: article PMC4961847 (2016)
